Consider one substance from patent US8946382B2, “Apelin peptides and methods of use” (The United States of America, as represented by the …, priority 2009, dated 2015).

“Also recorded” adds a separate entry of the source.

Assay [1] deals with human blood vessel endothelial (HMEC-1) cells. Description: Proliferation assay (ATPLITE), HMEC-1. It counts as cell-based. The conditions noted are these: FIG. 13A, listed as apelin-13(F13A). The text has this:
(§1) Proliferation response profiles of apelin, salcut-NH2, salcut-Gly, and/or salcut-OH on a variety of endothelial and tumor cell lines or primary endothelial cells were obtained using the following method. Human blood vessel endothelial cells (HMEC-1), human primary microvascular dermal EC (dB1), human lymphatic endothelial cells (LEC), human mast cells (HMC-1), human breast cancer cells (MCF-7; T47D), human gastric cancer cells (HTB 103), human lung cancer cells (A549), monkey endothelial cells (CRL 1780), and porcine aortic endothelial cells (PAE) were seeded at 25,000 cells per well at 50 μl volume in appropriate media containing 0.5% serum in a 96 well plate. After overnight incubation the peptide was added in serum free media and cells were incubated for 3-5 days. To measure growth proliferation, the adenosine triphosphate ATPLITE™ one-step assay (PerkinElmer), which is based on firefly luciferase and has high sensitivity for quantification of viable cells, was used. Data were expressed as mean plus minus standard deviation. Statistical analyses were performed using Student's t-test, p values less than 0.05 were considered statistically significant.
(§2) Endothelial cell proliferation assays were performed as described above with both spontaneously immortalized porcine aortic endothelial (PAE) cells and SV40 immortalized human dermal microvascular endothelial (HMEC-1).
For orientation: ATP-based viability assays read luminescence as a measure of living cells.

Assay [2] relates to porcine aortic endothelial (PAE) cells. As to conditions: FIG. 13B, listed as apelin-13(F13A).
From the text: as §1, §2

A further assay addresses T1, APJ receptor (Homo sapiens, UniProt P35414).
T1 sequence (P35414 1-380): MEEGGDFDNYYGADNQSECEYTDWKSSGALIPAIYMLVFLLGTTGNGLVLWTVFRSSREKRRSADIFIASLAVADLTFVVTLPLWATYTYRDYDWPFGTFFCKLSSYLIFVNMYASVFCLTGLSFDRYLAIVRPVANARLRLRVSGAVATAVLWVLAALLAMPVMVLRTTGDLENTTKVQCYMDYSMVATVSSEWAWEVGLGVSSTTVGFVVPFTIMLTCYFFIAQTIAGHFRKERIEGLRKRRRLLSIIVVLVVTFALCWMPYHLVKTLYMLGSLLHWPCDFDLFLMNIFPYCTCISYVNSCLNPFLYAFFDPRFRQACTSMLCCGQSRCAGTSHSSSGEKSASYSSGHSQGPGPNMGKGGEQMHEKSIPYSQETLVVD
The conditions noted are these: cited from earlier work.

(Ala13)-apelin-13: in assay [1], the “effect of APJ antagonist on Salcut-NH2 regulated proliferation” value is listed as “but not salcut-NH2 mediated growth; also recorded: is not blocked by apelin-13(F13A)” and the “effect of APJ antagonist on apelin-13 mediated proliferation” value is recorded as “blocks apelin-13 induced proliferation; also recorded: selectively inhibits apelin-13 mediated proliferation”. In addition, the “effect of APJ antagonist on apelin-13 mediated proliferation” value in assay [2] is “blocks apelin-13 induced proliferation; also recorded: selectively inhibits apelin-13 mediated proliferation”. The “stimulation of APJ receptor activity” value on APJ receptor (Lee et al. 2005) is listed as “does not stimulate APJ receptor activity”. On APJ receptor, the “binding to the APJ receptor” value is reported as “binds to the APJ receptor”.
